Most compounds without a hit are left out; they make up all but 4.2% or so of the library.
Yeast UUG start: alters start codon recognition fidelity in yeast. S. cerevisiae UUG-firefly luciferase reporter, luminescence/redox ratio. 350,000 tested, 0.13% active. activity score, % at 18.7 µM. AID 602363;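 active means replicate mean at a twofold rise or more, about +100% in these data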;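 further: firefly luciferase made from a UUG start codon reports start codon fidelity; reporter light over untreated wells divided by growth signal over untreated wells; some hits fall short of that in this replicate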
MC4R ag barr: activates human MC4R beta-arrestin recruitment. U2OS MC4R beta-arrestin complementation, luminescence; percent of melanotan II response, DMSO zero. hit rate 0.98% among 360,000. P32245. activation, % at 8.9 µM;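 active = activation above a per-plate cutoff, the mean activation of sample wells on that plate plus 3 SD, cut at about 8% in these data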
MC4R antag cAMP: human MC4R antagonism in cAMP assay | P32245 | inhibition, % at 6.5 µM | hit rate 0.48% among 360,000 | MC4R-expressing cells, MTII-stimulated cAMP, LANCE TR-FRET;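 active = inhibition above its plate's cutoff, the mean of tested wells on that plate plus 3 SD, cut at about 29% in these data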;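 also: 0% = Melanotan II alone and 100% = Melanotan II plus saturating MCL0020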
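system = U2OS cells with stable human MC4R expression | also added = Melanotan II challenge after compound preincubation | dosing = one concentration, 6.5 µM nominal | incubation = compound 30 min, challenge 1 h, detection 1 h | measured by = TR-FRET with Eu-cAMP and labeled anti-cAMP, 671 nm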
HDAC3 inh: blocks human histone deacetylase 3 | O15379 | recombinant HDAC3, fluorogenic peptide/trypsin coupled, fluorescence | inhibition, % at 8.3 µM | hit rate 0.15% among 320,000; in the data active = inhibition above about 26%, passing the limit was not always enough; inconclusive = no clear call, values can overlap the other calls
ALR inh: inhibitors of human sulfhydryl oxidase ALR; AID 485317; inhibition, % (no concentration beside the values); purified ALR, DTT oxidation, H2O2 HRP-luminol luminescence; hit rate 3.8% among 290,000;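 active means mean and each replicate at 75% or more; inconclusive means only one of the two met; inactive means neither met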;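 further: stock transfer was 7.5 nL into about 7.5 µL; 0% = neutral wells and 100% = wells with inactivated enzyme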
NALP1 inh: blocks the NALP1 inflammasome reconstituted in yeast; S. cerevisiae NALP1/ASC/caspase-1 growth, X-gal OD620, 72 h; inhibition, % at 10 µM; hit rate 0.61% among 280,000; in the data active = inhibition mostly above about 24%, no sharp cut-off; inactive = mostly below about 32%
Numbers without * were called inactive; ? = inconclusive; · = not tested or not shown; ! = repeats disagree.

1) CC1(N2CCCCC2)C(=O)c2ccccc2C1=O
2) CCNc1nc(OCCNS(=O)(=O)c2cc(C)ccc2C)nc(N(C)C)n1
3) CCNc1nc(OC)nc(N(OC)S(=O)(=O)c2ccc(C)cc2)n1
4) O=C(C[C@H]1C[C@H]2c3cc(NC(=O)NC4CCCC4)ccc3O[C@H]2[C@@H](CO)O1)NCC1CC1
5) C[C@H](NC(=O)C[C@@H]1CC[C@@H](NC(=O)C2CCOCC2)[C@@H](CO)O1)c1ccccc1
6) O=c1[nH]nc(CNc2ccc(O)cc2)c2ccccc12

| Screen / compound no. | 1 | 2 | 3 | 4 | 5 | 6 |
| --- | --- | --- | --- | --- | --- | --- |
| HDAC3 inh | -1 | -1 | 7 | · | · | ? |
| MC4R antag cAMP | 24 | 3 | -4 | · | · | -6 |
| Yeast UUG start | · | · | -12 | -3 | -21 | -5 |
| NALP1 inh | -11 | 13 | 16 | · | · | 3 |
| MC4R ag barr | 1 | 0 | -2 | · | · | -1 |
| ALR inh | -8 | -1 | 82* | · | · | 100* |

7) Cc1cccc(-c2ccc([C@@H]3[C@@H](CO)N4CCCCN(S(=O)(=O)c5cn(C)cn5)C[C@@H]34)cc2)c1
8) O=C(Nc1ncnc2sc3c(c12)CCCCC3)c1ccco1
9) C/C(=N\Nc1ccc(S(=O)(=O)N2CCCCC2)cn1)c1ccc(O)cc1
10) COc1cccc(/C(C)=N/Nc2ccc(S(=O)(=O)N3CCCCC3)cn2)c1
11) O=C(C1CC1)N1C[C@@H]2[C@H](c3ccccc31)[C@H](CO)N2C(=O)c1cccc(F)c1
12) COCc1ccc(C(=O)N2CCCC(Nc3ccc4c(c3)OCCO4)C2)o1 (stereo unspecified)

| Screen / compound no. | 7 | 8 | 9 | 10 | 11 | 12 |
| --- | --- | --- | --- | --- | --- | --- |
| HDAC3 inh | · | -3 | 2 | -6 | · | 0 |
| MC4R antag cAMP | · | -6 | -19 | 1 | · | -1 |
| Yeast UUG start | 17 | · | -32 | -18 | 15 | 2 |
| NALP1 inh | · | 10 | · | · | · | 4 |
| MC4R ag barr | · | -2 | -3 | -3 | · | -1 |
| ALR inh | · | 97* | 91* | -2 | · | 99* |

13) COCc1ccc(C(=O)N2CCCC(Nc3ccc(F)c(F)c3)C2)s1 (stereo unspecified)
14) COC(=O)c1ccc(C(=O)N2CCCC(Nc3ccc(F)c(F)c3)C2)cc1 (stereo unspecified)
15) COc1ccc(NC2CCCN(C(=O)c3ccc(CSC)o3)C2)cc1OC (stereo unspecified)
16) C[C@H](CO)N1C[C@H](C)[C@@H](CN(C)Cc2ccccc2)Oc2ncc(C3=CCCC3)cc2C1=O
17) C[C@@H]1CCCCO[C@H](CN(C)C(=O)Nc2ccc3c(c2)OCO3)[C@@H](C)CN([C@@H](C)CO)C(=O)c2cc(NC(=O)c3ccccc3)ccc2O1
18) CCNC(=O)C[C@@H]1CC[C@@H]2[C@H](COc3ccc(NC(=O)Nc4ccc(C)cc4)cc3C(=O)N2C)O1

| Screen / compound no. | 13 | 14 | 15 | 16 | 17 | 18 |
| --- | --- | --- | --- | --- | --- | --- |
| HDAC3 inh | 0 | 1 | 1 | · | · | · |
| MC4R antag cAMP | 9 | 16 | 3 | · | · | · |
| Yeast UUG start | -10 | -5 | -8 | 30 | 11 | 2 |
| NALP1 inh | 1 | -70 | 10 | · | · | · |
| MC4R ag barr | -2 | -2 | -1 | · | · | · |
| ALR inh | 63 | 8 | 99* | · | · | · |

19) CCCc1nnc(NC(=O)Cn2c(=O)oc3cc(Br)ccc32)s1
20) O=c1oc2cc(Br)ccc2n1CSC1=NCCS1
21) COc1cccc(-c2ccc3c(c2)[C@@H]2[C@@H](CCN2C(=O)c2ccc4c(c2)OCO4)[C@H](CO)N3C)c1
22) CO[C@@H]1CN(C)C(=O)c2ccc(NS(=O)(=O)c3ccc(Cl)cc3)cc2OC[C@@H](C)NC[C@@H]1C
23) CCc1ccc(Nc2cnn(-c3nc4ccccc4s3)c(=O)c2Cl)cc1
24) CCCCNc1cnn(-c2ccccc2)c(=O)c1Cl

| Screen / compound no. | 19 | 20 | 21 | 22 | 23 | 24 |
| --- | --- | --- | --- | --- | --- | --- |
| HDAC3 inh | 1 | 13 | · | · | 6 | 0 |
| MC4R antag cAMP | 0 | 5 | · | · | 20 | -5 |
| Yeast UUG start | -18 | -11 | -8 | -6 | · | · |
| NALP1 inh | 1 | -12 | · | · | -35 | 30 |
| MC4R ag barr | 1 | -1 | · | · | 8.2* | -1 |
| ALR inh | -10 | 99* | · | · | 2 | · |

25) O=C1CSC(c2ccc([N+](=O)[O-])cc2)N1c1ccccc1 (stereo unspecified)
26) COc1ccc(C2SCC(=O)N2c2ccccc2)cc1 (stereo unspecified)
27) COc1ccc(N2C(=O)CSC2c2ccc([N+](=O)[O-])cc2)cc1 (stereo unspecified)
28) O=C(N[C@@H]1CC[C@H](CCNS(=O)(=O)c2ccc(F)cc2)O[C@H]1CO)c1cnccn1
29) C/C(N)=C(/C#N)C(=O)COC(=O)c1cc(-c2ccc(Br)cc2)nc2ccccc12
30) Cc1nc2ccccc2n2c(O)c(CC(=O)O)cc12

| Screen / compound no. | 25 | 26 | 27 | 28 | 29 | 30 |
| --- | --- | --- | --- | --- | --- | --- |
| HDAC3 inh | 1 | -2 | -1 | · | 2 | 4 |
| MC4R antag cAMP | 0 | -2 | 9 | · | 24 | -30 |
| Yeast UUG start | -14 | -12 | -2 | -2 | · | -11 |
| NALP1 inh | 7 | 12 | 23 | · | 28 | 32 |
| MC4R ag barr | -3 | -2 | -1 | · | 8.4*! | 8.3* |
| ALR inh | 98* | · | 98* | · | -21 | 41 |

31) COc1ccc(C=Nc2ccc3[nH]ncc3c2)c(O)c1
32) Oc1c(Br)cc(Br)cc1C=Nc1ccc2[nH]ncc2c1
33) Cc1cc(C(=O)Nc2cccc3c2O[C@H](CN(C)Cc2ccc(C(=O)O)cc2)[C@H](C)CN([C@H](C)CO)C3=O)n(C)n1
34) CCC(=O)Nc1ccc(Cl)c(NC(=S)NC(=O)c2cc3ccccc3o2)c1
35) CCCCN1C(=O)/C(=c2\sc3nc(=O)c(-c4ccccc4)nn3c2=O)c2ccccc21
36) CN(C)C(=O)C[C@H]1CC[C@H](NC(=O)Nc2cccc(F)c2)[C@@H](CO)O1

| Screen / compound no. | 31 | 32 | 33 | 34 | 35 | 36 |
| --- | --- | --- | --- | --- | --- | --- |
| HDAC3 inh | -10 | -14 | · | 0 | -5 | · |
| MC4R antag cAMP | 18 | 0 | · | -7 | 3 | · |
| Yeast UUG start | · | · | -11 | -2 | -7 | -11 |
| NALP1 inh | 3 | · | · | 4 | 15 | · |
| MC4R ag barr | -1 | 2 | · | 8.2* | -1 | · |
| ALR inh | 90* | 0 | · | 0 | 97* | · |

37) CC1=C(C(=O)Nc2ccccc2)C(c2ccc(C)cc2)N=C(Nc2nc3ccccc3o2)N1 (stereo unspecified)
38) CC1(C)CC(=O)C2=C(C1)NC(Nc1nc3ccccc3o1)=NC2c1ccccn1 (stereo unspecified)
39) CN1CCN(C(=O)C2=C[C@H](C(C)(C)C)C[C@H](OCc3ccc(CO)cc3)O2)CC1
40) COc1ccc(CNC(=S)N/N=C/c2ccc(OC)c(OC)c2)cc1
41) COc1cc(/C=N/NC(=S)NC2CC3CCC2C3)ccc1O (stereo unspecified)
42) COc1ccc(/C=N/NC(=S)N[C@H]2CC3CCC2C3)cc1 (stereo partly specified)

| Screen / compound no. | 37 | 38 | 39 | 40 | 41 | 42 |
| --- | --- | --- | --- | --- | --- | --- |
| HDAC3 inh | -35 | -2 | · | 8 | 5 | -4 |
| MC4R antag cAMP | -5 | -4 | · | 9 | -5 | 10 |
| Yeast UUG start | -10 | -14 | -3 | -26 | -40 | -20 |
| NALP1 inh | 6 | -2 | · | 16 | -12 | 9 |
| MC4R ag barr | 9.9* | 2 | · | -1 | 0 | 5 |
| ALR inh | -2 | -3 | · | 6 | 99* | 0 |

Profiles, looked up by structure. Order of values: HDAC3 inh | MC4R antag cAMP | Yeast UUG start | NALP1 inh | MC4R ag barr | ALR inh
CCNC(=O)C[C@@H]1CC[C@@H]2[C@H](COc3ccc(NC(=O)Nc4ccc(C)cc4)cc3C(=O)N2C)O1 across the screens: · | · | 2 | · | · | ·
CCNc1nc(OCCNS(=O)(=O)c2cc(C)ccc2C)nc(N(C)C)n1 across the screens: -1 | 3 | · | 13 | 0 | -1
C[C@H](CO)N1C[C@H](C)[C@@H](CN(C)Cc2ccccc2)Oc2ncc(C3=CCCC3)cc2C1=O across the screens: · | · | 30 | · | · | ·

(cont.)
43) COc1ccc(CNC(=S)N/N=C/c2ccc(O)c(OC)c2)cc1
44) COc1ccc(NC2c3ccccc3C(=O)N2c2cccnc2)cc1 (stereo unspecified)
45) O=C(O)c1cnc(-c2ccccc2)nc1Sc1ccccc1Cl
46) O=C(O)c1cnc(-c2ccccc2)nc1Sc1ccc(Cl)cc1
47) CCOC(=O)c1nnc(-c2ccccc2)nc1Sc1ccccc1Cl
48) CCOC(=O)c1nnc(-c2ccc(C)cc2)nc1Sc1cccc(Cl)c1

| Screen / compound no. | 43 | 44 | 45 | 46 | 47 | 48 |
| --- | --- | --- | --- | --- | --- | --- |
| HDAC3 inh | ? | 5 | -7 | 2 | 2 | -5 |
| MC4R antag cAMP | -4 | 17 | 6 | 1 | 2 | -2 |
| Yeast UUG start | -22 | -13 | -12 | -13 | -13 | · |
| NALP1 inh | 2 | 15 | -6 | 0 | 4 | -9 |
| MC4R ag barr | -1 | 2 | -3 | 0 | -4 | 1 |
| ALR inh | 87* | 88* | 98* | · | 97* | · |

Screening data: PubChem BioAssay, several laboratories
